Data on 1 compound can be found in patent publication US10017527B2, “KLK4 inhibitors” (Universiteit Antwerpen, priority 2014, dated 2018).

The assay deals with T1, Thrombine (human plasma) (Homo sapiens, UniProt P00734).
T1 construct: purchased Sigma-Aldrich; host or cells: human plasma
The experiment in a line: Thrombin inhibition, chromogenic substrate Biophen CS-21(66). The class given is biochemical.

As to `CCCCCCOC(=O)NC(c1ccc(NC(=N)N)cc1)P(=O)(Oc1ccccc1)Oc1ccccc1` (stereo not shown) [Compound 92, Hexyl ((diphenoxyphosphoryl)(4-guanidinophenyl)methyl)carbamate], the IC50 was greater than 250 µM.
